Data from PMC8512368, “Alpha-Glucosidase Inhibitory Assay-Screened Isolation and Molecular Docking Model from Bauhinia pulla Active Compounds” (Molecules, 2021).

Protein sequences, listed by entry. Tags and fused reporters are not part of them. Lines headed by an entry give the natural chain unless they say otherwise; changes in a name come on top.
UniProt P53341: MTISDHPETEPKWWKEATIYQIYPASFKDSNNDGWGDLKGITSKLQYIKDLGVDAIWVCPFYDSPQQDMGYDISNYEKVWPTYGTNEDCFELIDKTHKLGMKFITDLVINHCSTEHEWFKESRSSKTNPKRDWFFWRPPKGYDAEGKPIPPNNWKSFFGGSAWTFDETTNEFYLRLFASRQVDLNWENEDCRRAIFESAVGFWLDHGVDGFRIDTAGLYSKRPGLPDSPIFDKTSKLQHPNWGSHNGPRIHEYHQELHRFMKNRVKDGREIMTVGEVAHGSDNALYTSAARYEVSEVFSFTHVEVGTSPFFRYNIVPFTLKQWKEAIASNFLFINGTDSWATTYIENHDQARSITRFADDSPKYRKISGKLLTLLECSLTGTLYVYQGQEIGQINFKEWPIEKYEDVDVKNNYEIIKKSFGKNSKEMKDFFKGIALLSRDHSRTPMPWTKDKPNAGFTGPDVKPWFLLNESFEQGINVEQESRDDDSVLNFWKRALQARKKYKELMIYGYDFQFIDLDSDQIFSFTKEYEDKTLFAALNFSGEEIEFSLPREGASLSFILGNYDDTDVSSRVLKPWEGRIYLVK

Biological target: T1, alpha-glucosidase enzyme from Saccharomyces cerevisiae (EC 3.2.1.20) (Saccharomyces cerevisiae, UniProt P53341)
T1 construct: purchased Sigma-Aldrich
Format: biochemical
Settings: Bauhinia pulla extract screening; test concentration not given
Experimental: Briefly, the enzyme from Saccharomyces cerevisiae (EC 3.2.1.20) and the pNPG substrate were dissolved in 0.1 M phosphate buffer (pH 7), which was enriched by bovine serum albumin and sodium azide. Standards and samples were suspended in 20% (v/v) of DMSO in a water solution. In a 96-well plate, 50 µl of PBS, standards, samples and enzyme solutions were mixed and incubated for 2 min at 37 °C. At last, 50 µl of 4 mM pNPG was added and incubated for 5 min before the kinetic parameter measurement, as described earlier.
The velocity was examined by a linear relationship equation between absorbance and time, Equation (1).
The percent inhibition was determined for the highest velocity as:% Inhibition = (V control − V sample)/(V control) × 100(2)
The IC50 value was calculated by using a calibration curve equation between samples at five different concentrations and inhibition percentages.

SMILES: C[C@H]1O[C@H](O[C@H]2[C@H](O)[C@@H](O)[C@@H](O[C@H]3[C@H](O)[C@@H](O)C(O)O[C@@H]3CO)O[C@@H]2CO)[C@H](O)[C@@H](O)[C@@H]1N[C@H]1C=C(CO)[C@@H](O)[C@H](O)[C@H]1O (stereo partly shown) [Acarbose, reference compound]
- Alpha-Glucosidase Inhibition (%) ± SD: 86.09 ± 1.54%
